# Apparent affinities of Ab-14 variants for a coronavirus HR2 peptide

The measurements come from Engelhart et al. 2022 (doi:10.1038/s41597-022-01779-4) through the FLAb antibody collection.

All variants were tested on one target, the spike HR2 peptide PDVDLGDISGINAS (SARS-CoV-2).

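Library AAYL49 holds single substitutions and randomly drawn double and triple substitutions in the CDRs. In AlphaSeq, yeast of one mating type display the scFv and yeast of the other type display the target. Pairs that bind mate more often; barcode pairs of the diploids are counted by sequencing. A regression on co-assayed BCL2-family reference pairs converts the normalised counts of each replicate to an apparent Kd. Each pool was mated in three replicate cultures.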

The variants keep the light chain, the linker and the frameworks of Ab-14 (scFv order VH, the linker GGGGSGGGGSGGGGS, VL).
VH: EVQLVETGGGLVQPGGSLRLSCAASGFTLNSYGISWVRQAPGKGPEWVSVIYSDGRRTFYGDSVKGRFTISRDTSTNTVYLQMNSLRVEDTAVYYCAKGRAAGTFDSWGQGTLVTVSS
VL: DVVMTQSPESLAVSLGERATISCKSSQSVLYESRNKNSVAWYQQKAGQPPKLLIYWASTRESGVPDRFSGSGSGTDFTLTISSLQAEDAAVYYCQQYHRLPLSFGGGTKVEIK

The parent's heavy chain CDRs are GFTLNSYGIS, VIYSDGRRTFYGDSVK, GRAAGTFDS; each variant's own CDRs replace them letter for letter.
All variants listed here change A101 of the VH, counted from its first residue.
Values are log10 of the apparent Kd in nM; lower means stronger binding.
A mean of the replicates is given; it leaves out those without a signal.
An entry "n.d." has no value in the source: the pair was not observed among the diploids in that replicate. This suggests poor binding but is not conclusive.
Nonspecific signal, from three strains lacking the peptide, appeared in 15% of pairings of library AAYL49, centred on 4.06 (5% of these signals below 2.83); values are not corrected for it. For each scFv, signals with the empty controls are counted beside the result, with their mean in brackets.
In this assay the parent's reference entry averaged 0.65; its copy inside this library read 4.11 (one replicate of three).

| CDR-H1 | CDR-H2 | CDR-H3 | log10 Kd (nM) by replicate | mean, log10 nM | control signals |
|---|---|---|---|---|---|
| GFTLNSQGIS | VIYSDGRRTFYGDSVK | GRHAGTFDS | 1.41 1.60 1.62 | 1.54 | 1 of 9 (3.66) |
| GFTMNSYGIS | VIYSDGRRTFYGDSIK | GRNAGTFDS | 2.54 2.42 2.19 | 2.38 | 0 of 9 |
| GFTLNSYGIC | VIYSDGRRTFYGDSVK | GRQAGTTDS | n.d. n.d. n.d. | n.d. | 1 of 9 (3.67) |
| GFTLNSYGIS | VIYSDGRRTFYGDSVE | GRSAGTFDK | n.d. n.d. n.d. | n.d. | 0 of 9 |
| GFTLNSYGIS | VIYNDGRRTFYGDSDK | GRTAGTFDS | n.d. n.d. n.d. | n.d. | 2 of 9 (3.82) |
| GFTLKGYGIS | VIYSDGRRTFYGDSVK | GRVAGTFDS | 3.32 2.70 2.87 | 2.96 | 2 of 9 (4.32) |
| GFTLNSYGIS | VIYSDGRRTFYGDSVF | GRTAWTFDS | n.d. n.d. n.d. | n.d. | 0 of 9 |
| GFTLNSYGIS | VKYSMGRRTFYGDSVK | GRIAGTFDS | 5.65 3.55 n.d. | 4.60 | 3 of 9 (3.37) |
| GFTPNSYGIS | VIYSEGRRTFYGDSVK | GRYAGTFDS | n.d. n.d. n.d. | n.d. | 0 of 9 |
| GFTLNSYGIS | VIYSDGRRTFYGDSVK | GRYAGTFDS | 2.27 1.94 2.32 | 2.18 | 3 of 9 (4.68) |
| GFTLNQYGIS | VIYSDGRRPFYGDSVK | GRMAGTFDS | n.d. 3.03 3.63 | 3.33 | 4 of 9 (5.01) |
| GFTLNSYGIS | VIYSDGARTFYIDSVK | GRDAGTFDS | 2.43 1.59 n.d. | 2.01 | 1 of 9 (2.11) |
| GFTLNSCGIS | VIYSDGRRTFYGDSCK | GRWAGTFDS | 3.14 2.65 4.66 | 3.49 | 2 of 9 (4.14) |
| GFTLNSYGIS | VIYSDGRRTFYGDSVP | TRVAGTFDS | n.d. n.d. 3.53 | 3.53 | 0 of 9 |
| GFTLNSYGIS | VIYSDGRRTFYGDSVK | GRRAITFDS | 1.62 1.55 1.92 | 1.70 | 2 of 9 (3.37) |
| GFTLWSYGIS | VIASDGRRTFYGDSVK | GRRAGTFDS | n.d. n.d. n.d. | n.d. | 0 of 9 |
| GFTLNSYGIS | VIYSDGRRTFYGKSVK | GMIAGTFDS | 0.63 1.09 0.99 | 0.90 | 0 of 9 |
| GFNLNSYGIS | VIFSDGRRTFYGDSVK | GRQAGTFDS | n.d. 1.80 n.d. | 1.80 | 0 of 9 |
| GFTLHSYGIS | VIYSDGRRTFYGDSVK | GRDAGTADS | 1.17 1.22 2.21 | 1.54 | 1 of 9 (3.90) |
| GFTLNSYGIS | VIYSDGRRTFYGDSVK | GRSAGTFDS | n.d. n.d. n.d. | n.d. | 0 of 9 |
| GFTLNSYGIS | VIYSDLRRTFYGQSVK | GRNAGTFDS | n.d. n.d. n.d. | n.d. | 0 of 9 |
| GFTLVSYGIS | VIYSDGRRTFYGDSVK | GRMAGEFDS | n.d. n.d. n.d. | n.d. | 2 of 9 (3.83) |
| GFTLNSYGIS | VIASDGRRTFYGDSVK | GRFAGTFDS | 3.87 n.d. 2.93 | 3.40 | 1 of 9 (3.92) |
| GFTLNSYGIS | VIYSDGRRTFYGDSVT | GRMYGTFDS | 1.05 2.42 1.37 | 1.61 | 1 of 9 (3.81) |
| GFTLNSYGIS | VIYSDPRRTFYGDSVK | LRDAGTFDS | n.d. n.d. n.d. | n.d. | 3 of 9 (4.22) |
| GFTLNSYGIS | VIYSDGRRTFYGDSVK | GRGAGWVDS | 0.71 0.86 0.67 | 0.74 | 0 of 9 |
| FFTLNSYGIS | NIYSDGRRTFYGDSVK | GRCAGTFDS | 3.62 n.d. n.d. | 3.62 | 4 of 9 (3.98) |
| GFTLNLYGCS | VIYSDGRRTFYGDSVK | GREAGTFDS | n.d. 3.67 4.42 | 4.05 | 3 of 9 (4.34) |
| GFTLNSYGIS | VIYSMCRRTFYGDSVK | GREAGTFDS | n.d. n.d. n.d. | n.d. | 0 of 9 |
| GFTWNSYGIS | VIYRDGRRTFYGDSVK | GRTAGTFDS | n.d. 3.19 5.14 | 4.16 | 2 of 9 (4.30) |
| GFTLNSYGIS | VMYKDGRRTFYGDSVK | GRWAGTFDS | n.d. n.d. n.d. | n.d. | 3 of 9 (4.15) |
| TFTLNSYGIS | VIYSDGRRTFYGDSVK | GELAGTFDS | 1.14 1.16 1.18 | 1.16 | 1 of 9 (3.28) |
| GFTLNSYGIS | VIFSDIRRTFYGDSVK | GRNAGTFDS | n.d. n.d. n.d. | n.d. | 2 of 9 (4.42) |
| GFVLNSYGIS | VIYSDGRRTFYGDSVK | GRRAGYFDS | n.d. n.d. n.d. | n.d. | 2 of 9 (3.54) |
| GFTLNSYGIS | VIYSDGWRTFYGDSVK | GRRAGTFDS | n.d. 1.59 3.18 | 2.38 | 0 of 9 |
| GFTLNSYGIS | VIYSDGRRTFYGDSVK | GRCAGTFPS | n.d. n.d. n.d. | n.d. | 0 of 9 |
| GFTLNSYGIS | VIYSDNRRTFYGDSVK | GRSARTFDS | n.d. n.d. n.d. | n.d. | 0 of 9 |
| GFTLNSYGIS | VIYSDGRRFFYGDSVK | GRYRGTFDS | 5.93 2.96 4.38 | 4.42 | 7 of 9 (4.88) |
| GFTLNSYGIS | VIYSDGRRTFYGDSVK | QRYAGTWDS | n.d. n.d. n.d. | n.d. | 1 of 9 (4.49) |
| GFTLNSYGIS | VIYSDGRRTFYGCLVK | GREAGTFDS | n.d. n.d. 4.16 | 4.16 | 0 of 9 |
| GFTLNSYGIS | VIYSDGFRTFYGDSVK | GRTAGTFDI | 0.85 0.93 0.97 | 0.92 | 0 of 9 |
| GFTLNSYGIS | VIYSDGRRTFYFDMVK | GRYAGTFDS | n.d. 3.08 5.10 | 4.09 | 3 of 9 (3.63) |
| GFTLNSYGIS | VIFSCGRRTFYGDSVK | GRWAGTFDS | n.d. n.d. n.d. | n.d. | 0 of 9 |
| GFTLNSYEIS | VIYSDGRRTFYGDSVK | GRKAGTFDA | n.d. n.d. n.d. | n.d. | 1 of 9 (2.67) |
| GFTLNSYGIS | VIYSDGRRTFYGDDVK | GTNAGTFDS | -0.05 0.31 0.09 | 0.12 | 3 of 9 (4.39) |
| GFTLNSYGIS | VIYSDGRRTFYGDSVK | GRHAGTFIF | 1.79 1.82 2.03 | 1.88 | 3 of 9 (4.00) |
| GFTLNSYGIS | VILSDGRRTFYGDSVK | GRRAGTFDS | n.d. n.d. n.d. | n.d. | 0 of 9 |

The 3 strongest on average among those seen in every replicate, once more:

| CDR-H1 | CDR-H2 | CDR-H3 | log10 Kd (nM) by replicate | mean, log10 nM | control signals |
|---|---|---|---|---|---|
| GFTLNSYGIS | VIYSDGRRTFYGDDVK | GTNAGTFDS | -0.05 0.31 0.09 | 0.12 | 3 of 9 (4.39) |
| GFTLNSYGIS | VIYSDGRRTFYGDSVK | GRGAGWVDS | 0.71 0.86 0.67 | 0.74 | 0 of 9 |
| GFTLNSYGIS | VIYSDGRRTFYGKSVK | GMIAGTFDS | 0.63 1.09 0.99 | 0.90 | 0 of 9 |